Experimental findings from patent US6905839B2, “In vivo phenotyping for human cytochrome P450 3A activity” (priority 2002, dated 2005) are described below.

In data set [1] the test system is CYP3A. Particulars: male, human, in vivo, 168 h. Here is the method:
(§1) The subject was not receiving any medication. […] Urine samples were obtained at a timed period (0-2, 2-4, 4-6, 6-8, 8-10, and 10-12) and the volume of the urine samples was noted. The recommended frequency of blood sampling is at least one time during a 2-hour urine collection. Urinary concentrations of cortisol and 6β-hydroxycortisol and plasma concentrations of cortisol were determined by HPLC and GC-MS, respectively. “The endogenous metabolic clearance (CLm(6β)-endo)” was calculated by Equation 4.
c) The fractional metabolic clearance for the 6β-hydroxylation of endogenous cortisol (CLm(6β)) is expressed as the amount of urinary excreted 6β-hydroxycortisol (X(6β)) divided by the area under the concentration-time curve of cortisol (AUC(F)); that is, CLm(6β)=X(6β)/AUC(F).

In data set [2] the test system is CYP3A. As to the kind of experiment: Effect of clarithromycin on in vivo CYP3A activity by urinary 6β-hydroxycortisol/cortisol ratio (conventional index). The arrangement: species or system human. The note with it: Subject D, clarithromycin days 1 to 6, FIG. 4. On the procedure: as §1

On to `CC[C@H]1OC(=O)[C@H](C)[C@@H](O[C@H]2C[C@@](C)(OC)[C@@H](O)[C@H](C)O2)[C@H](C)[C@@H](O[C@@H]2O[C@H](C)C[C@H](N(C)C)[C@H]2O)[C@](C)(OC)C[C@@H](C)C(=O)[C@H](C)[C@@H](O)[C@]1(C)O` [clarithromycin], for which the “CLm(6β)-endo” value with CYP3A [1] was 2.56 mL/min. The “inhibition of in vivo CYP3A activity by urinary 6β-hydroxycortisol/cortisol ratio as index” value in the data set on CYP3A [2] is listed as “could not be well evaluated”.
